Values of other authors in patent publication US7012061B1 (New York University, priority 1998, dated 2006).

Key:
[1] = system: cerebral endothelial cells; conditions: cited from earlier work
NOS = conditions: rat, in vivo; cited from earlier work

| Compound | Cytokine-induced disruption of the BBB in vitro [1] | Increased permeability of the BBB (NOS) | Meningeal NO production (NOS) |
| --- | --- | --- | --- |
| COc1ccc2c(c1)c(CC(=O)O)c(C)n2C(=O)c1ccc(Cl)cc1 [Indomethacin] | abolished |  |  |
| N=C(N)NN [amino guanidine] |  | attenuated | blocked |
